# Literature values as cited in US20240197719A1 (priority 2018, published 2024).
# Settings: very high intravenous doses (up to 24 mg), individuals who are not opioid dependent; cited from earlier work
smiles,measurement,value
"C=C1CC[C@@]2(O)[C@H]3Cc4ccc(O)c5c4[C@@]2(CCN3CC2CC2)[C@H]1O5 [Nalmefene, 17-cyclopropylmethyl-4,5α-epoxy-6-methylenemorphinan-3,14-diol]",safety and tolerability,safe and well tolerated
